How the values were obtained:
hPDE IVA = hPDE IVA (Homo sapiens, UniProt P27815); settings: Table I, data from Torphy et al. 1992, read-out: R-Rolipram Ki; cited from earlier work
hPDE IVB = hPDE IVB (Homo sapiens, UniProt Q07343); assay: PDE assay: cAMP hydrolysis by recombinant hPDE IVB in yeast lysate supernatant; settings: inhibition of cAMP hydrolysis, recombinant hPDE IVB expressed in yeast

The chains behind the UniProt entries cited, without tags or fusion partners. Residues count along the entry.
UniProt P27815, 1-686 isoform P27815-3: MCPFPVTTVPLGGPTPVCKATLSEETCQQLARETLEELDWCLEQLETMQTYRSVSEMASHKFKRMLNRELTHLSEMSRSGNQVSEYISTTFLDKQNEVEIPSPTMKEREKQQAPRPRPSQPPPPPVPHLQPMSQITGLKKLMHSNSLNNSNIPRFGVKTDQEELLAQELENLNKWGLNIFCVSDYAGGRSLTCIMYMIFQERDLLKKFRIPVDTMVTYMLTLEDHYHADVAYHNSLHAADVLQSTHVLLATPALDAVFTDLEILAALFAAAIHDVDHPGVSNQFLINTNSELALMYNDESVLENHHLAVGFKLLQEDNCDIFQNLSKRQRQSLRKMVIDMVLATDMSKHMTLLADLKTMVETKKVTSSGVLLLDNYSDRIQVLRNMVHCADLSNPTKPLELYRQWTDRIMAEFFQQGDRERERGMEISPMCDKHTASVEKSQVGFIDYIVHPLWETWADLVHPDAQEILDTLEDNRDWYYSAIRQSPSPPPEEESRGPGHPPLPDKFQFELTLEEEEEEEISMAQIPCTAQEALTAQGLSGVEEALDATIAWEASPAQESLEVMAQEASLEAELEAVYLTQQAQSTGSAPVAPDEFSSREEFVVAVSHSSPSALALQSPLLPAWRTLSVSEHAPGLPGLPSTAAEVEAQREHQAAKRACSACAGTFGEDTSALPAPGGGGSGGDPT
UniProt Q07343, 1-564 isoform Q07343-2: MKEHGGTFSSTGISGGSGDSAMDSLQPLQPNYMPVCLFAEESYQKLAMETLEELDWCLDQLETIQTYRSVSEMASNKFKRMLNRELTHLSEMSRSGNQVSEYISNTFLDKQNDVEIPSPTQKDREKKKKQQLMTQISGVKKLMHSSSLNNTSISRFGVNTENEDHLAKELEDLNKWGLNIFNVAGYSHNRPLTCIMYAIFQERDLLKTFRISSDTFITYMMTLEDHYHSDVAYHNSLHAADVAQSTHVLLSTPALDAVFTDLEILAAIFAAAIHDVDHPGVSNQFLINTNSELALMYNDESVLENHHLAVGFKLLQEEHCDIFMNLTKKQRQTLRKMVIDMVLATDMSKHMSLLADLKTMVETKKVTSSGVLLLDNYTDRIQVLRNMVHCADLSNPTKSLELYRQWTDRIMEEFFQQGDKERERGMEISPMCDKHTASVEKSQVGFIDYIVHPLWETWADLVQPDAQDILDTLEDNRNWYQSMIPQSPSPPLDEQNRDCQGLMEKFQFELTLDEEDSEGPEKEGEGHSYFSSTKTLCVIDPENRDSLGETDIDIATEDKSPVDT

Q: For R-rolipram, which Ki (hPDE IVA) is on record?
A: 60 nM

Q: And the Ki (hPDE IVB)?
A: 85 nM

From patent US20020068351A1, “Human brain phosphodiesterase” (SmithKline Beecham Corporation, priority 1994, published 2002)
